The experiment addresses Indoleamine 2,3-dioxygenase 1 (Homo sapiens, UniProt P14902). In words: Inhibition of purified human recombinant IDO expressed in TREx cells. An outline of the steps: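 T-REx cells carrying doxycycline-inducible human IDO cDNA are seeded at 20000/well and induced 72 h with doxycycline. They are rinsed, then exposed in triplicate to serial dilutions in phenol red-free DMEM + 10% FBS for 18 h and TCA-fixed. Supernatant kynurenine is read with p-DMAB at 490 nm, corrected for SRB viability. IC50 is taken from a sigmoidal curve.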

By UniProt entry, the sequences of proteins in these tests, tags left out.
UniProt P14902, whole entry: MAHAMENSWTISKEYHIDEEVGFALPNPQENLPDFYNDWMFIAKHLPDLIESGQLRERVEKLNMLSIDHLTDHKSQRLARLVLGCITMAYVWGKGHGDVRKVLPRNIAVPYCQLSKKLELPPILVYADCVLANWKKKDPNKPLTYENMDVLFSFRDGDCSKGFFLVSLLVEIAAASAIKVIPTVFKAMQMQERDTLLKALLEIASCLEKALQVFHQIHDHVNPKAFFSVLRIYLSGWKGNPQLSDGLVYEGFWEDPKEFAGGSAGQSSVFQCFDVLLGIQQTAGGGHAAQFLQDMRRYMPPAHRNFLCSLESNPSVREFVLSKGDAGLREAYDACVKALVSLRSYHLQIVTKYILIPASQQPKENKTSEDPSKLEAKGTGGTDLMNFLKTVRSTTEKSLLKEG

The structures appear in SMILES notation.

As to `CC1(C)OC2=C(C(=O)c3ccccc3C2=O)C(NCc2ccccc2)C1O` (stereo in doubt), the IC50 was determined as 6.8 µM.

Values taken from ChEMBL document CHEMBL1144666, “Indoleamine 2,3-dioxygenase is the anticancer target for a novel series of potent naphthoquinone-based inhibitors” (J Med Chem, 2008).
